The record followed here is patent publication US12503453B2, “USP7 inhibition” (Dana-Farber Cancer Institute, Inc., priority 2018, dated 2025).

Chains of the proteins cited; added tags and fusions are not shown.
UniProt Q93009, whole entry: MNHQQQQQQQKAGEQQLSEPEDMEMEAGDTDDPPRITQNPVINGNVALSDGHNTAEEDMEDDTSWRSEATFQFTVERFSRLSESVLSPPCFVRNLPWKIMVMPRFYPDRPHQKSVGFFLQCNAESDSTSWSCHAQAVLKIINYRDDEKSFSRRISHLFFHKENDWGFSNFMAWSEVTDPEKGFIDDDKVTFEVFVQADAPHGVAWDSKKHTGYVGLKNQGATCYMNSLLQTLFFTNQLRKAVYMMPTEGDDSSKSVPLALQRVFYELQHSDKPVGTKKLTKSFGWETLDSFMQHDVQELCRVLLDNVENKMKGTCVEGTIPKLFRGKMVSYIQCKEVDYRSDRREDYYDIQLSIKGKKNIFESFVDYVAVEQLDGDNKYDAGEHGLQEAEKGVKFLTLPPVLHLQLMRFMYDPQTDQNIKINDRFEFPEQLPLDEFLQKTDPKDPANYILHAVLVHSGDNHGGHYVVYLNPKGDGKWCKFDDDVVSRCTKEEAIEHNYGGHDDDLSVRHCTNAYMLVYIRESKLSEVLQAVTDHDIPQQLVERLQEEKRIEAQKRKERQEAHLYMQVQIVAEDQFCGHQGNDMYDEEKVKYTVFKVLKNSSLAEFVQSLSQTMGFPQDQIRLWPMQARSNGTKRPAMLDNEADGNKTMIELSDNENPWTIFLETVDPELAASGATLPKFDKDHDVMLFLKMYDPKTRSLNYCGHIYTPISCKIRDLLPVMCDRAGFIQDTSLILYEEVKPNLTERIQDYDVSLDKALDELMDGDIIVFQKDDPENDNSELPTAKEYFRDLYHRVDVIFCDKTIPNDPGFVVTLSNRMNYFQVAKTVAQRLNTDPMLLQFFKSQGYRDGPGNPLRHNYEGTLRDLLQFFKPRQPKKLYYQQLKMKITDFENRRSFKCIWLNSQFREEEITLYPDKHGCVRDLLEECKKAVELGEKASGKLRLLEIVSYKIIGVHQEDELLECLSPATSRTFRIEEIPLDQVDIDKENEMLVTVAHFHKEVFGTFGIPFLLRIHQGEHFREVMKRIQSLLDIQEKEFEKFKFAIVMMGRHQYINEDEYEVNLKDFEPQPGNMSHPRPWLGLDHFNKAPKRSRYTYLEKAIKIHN

The target in this assay is full length USP7 (Homo sapiens (Human), UniProt Q93009). The assay is described as follows: Ub-AMC enzymatic assay with full-length USP7. The format is biochemical. The procedure:
The constructs encoding USP7 full length (amino acids 1-1102) and catalytic domain (208-560) used were cloned as described (Lamberto, I. et al. Structure-Guided Development of a Potent and […] Selective Non-covalent Active-Site Inhibitor of USP7. Cell Chem. Biol. 24, 1490-1500 (2017)). Both constructs were overexpressed in E. coli BL21 (DE3). Cells were grown at 37° C. to an OD of 0.9, cooled to 16° C., induced with 500 μM isopropyl-1-thio-D-galactopyranoside (IPTG), incubated overnight at 16° C., collected by centrifugation, and stored at −80° C. Cell pellets were sonicated in lysis buffer (25 mM Tris pH 8, 1 M NaCl, and 10 mM BME) supplemented with 10 μg/ml phenylmethanesulfonylfluoride (PMSF) and the resulting lysate was centrifuged at 30,000×g for 40 min. Ni-NTA beads (Qiagen) were mixed with lysate supernatant for 2 hours, and washed with lysis buffer supplemented with 25 mM imidazole. […]
Full length USP7 was tested for its activity in Ubiquitin-AMC assay in presence or absence of inhibitors. […] The initial rate of the reaction was measured by collecting fluorescence data at one minute intervals over 30-minute period using a Clariostar fluorescence plate reader at excitation and emission wavelength of 345 and 445 nm respectively. The calculated initial rate values were plotted against inhibitor concentrations to determine IC50s. […]

Turning to HBX-19818 [reference compound], the “IC50 against USP7 (range in words)” value is given as “micromolar”.
